Results on two compounds are retold here after patent US8741883B2, “Compounds and methods for the diagnosis and treatment of amyloid associated diseases” (The Regents of the University of California—San Diego, priority 2005, dated 2014).

By UniProt entry, the sequences of proteins in these tests, tags left out. Residues count along the entry.
UniProt P05067, 672-713 limits assumed: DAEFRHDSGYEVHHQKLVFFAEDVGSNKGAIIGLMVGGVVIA

Broadly, the IC50 is the midpoint of a concentration-inhibition curve. Higher therefore signals weaker potency.

This assay concerns the target monoclonal anti-Aβ IgG (clone 6E10)-A-beta fibril interactions (Homo sapiens, UniProt P05067). The note with it: for inhibition of the IgG-A-beta fibril interactions: clone 6E10, fibrils from A-beta 1-42.

Take `Cc1ccc2nc(-c3ccc(NCCOCCOCCOCCOCCOCCO)cc3)sc2c1` [BTA-EG6]: the IC50 is ~100 µM and the “inhibition of the IgG-A-beta fibril interactions” value was 99%.

`Cc1ccc2nc(-c3ccc(NCCOCCOCCOCCO)cc3)sc2c1` [BTA-EG4]: the half-maximal inhibitory concentration (IC50) was ~100 µM and the “inhibition of the IgG-A-beta fibril interactions” value came out at 94%.
